Sampled rows, rich in hits. Any-hit rate of the full collection: about 2.8%.
PGC1a acetyl inh: lowers PGC1a acetylation signal in U2OS cells | AlphaScreen anti-acetyl-lysine; with virally co-expressed GCN5 acetyltransferase | inhibition, % at 15.6 µM | hit rate 0.17% among 350,000 | AID 651687;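 active = every replicate shows inhibition of at least 40%; inconclusive = mean inhibition at least 40% but some replicate below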
esBAF inh: SWI/SNF esBAF complex inhibition | reporter increase, % at 12.5 µM | mouse ES cells, Bmi1-luciferase knock-in reporter, 24 h; 100% = twice the neutral-well signal | hit rate 2% among 350,000; in the data active = activation above about 40%; inconclusive = no clear call, values can overlap the other calls;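 note: a rise in the Bmi1 reporter signal indicates esBAF inhibition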
PglD DTNB: inhibitors of Campylobacter jejuni PglD acetyltransferase. AID 602405. inhibition, % at 12.5 µM. purified PglD enzyme, DTNB colorimetric CoA detection. hit rate 0.098% among 360,000; in the data active = inhibition above about 16%, passing the limit was not always enough; inconclusive = no clear call, values can overlap the other calls
E-selectin induc: E-selectin induction on HUVECs | P16581 | HUVEC E-selectin immunofluorescence imaging; normalized: neutral wells 0, TNF-alpha wells 100 | activation, % at 7.58 µM | hit rate 0.37% among 260,000;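 active = mean E-selectin-positive cell signal at least 10% of the positive control, reached in at least 60% of replicates, without over 20% cell loss; inconclusive = no rule given, readout overlaps actives, possibly toxicity-flagged; inactive = the rest, including those meeting only one limit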
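Read-out basis: % PE-positive cells; Test system: HUVEC primary endothelial cells; Technique: immunofluorescence imaging; Dosing: single-point compound dose.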
Statin myotox sup: suppressors of simvastatin-induced myotoxicity in C2C12 myotubes | ATP luminescence, 48 h; scaled: DMSO 0, geranylgeraniol control 100 | rescue of ATP level, % at 7.49 µM | hit rate 0.78% among 330,000;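 active = mean ATP rescue above about 67%, or every replicate alone reaching that limit, limit read from the data, passing the limit was not always enough; inconclusive = no clear call, values can overlap the other calls; inactive = mean under the limit and some replicate under it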;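 note: myotubes were challenged with 10 µM simvastatin during compound exposure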
UUG fidelity: modulators of yeast start codon fidelity, primary screen, whole organism, S. cerevisiae, single point, plate reader; S. cerevisiae UUG-firefly luciferase reporter, luminescence/redox ratio; activity score, % at 18.7 µM; 0.13% of 350,000 active; AID 602363, 2012;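 active = replicate mean at a twofold rise or more, about +100% in these data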;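 also: firefly luciferase made from a UUG start codon reports start codon fidelity; reporter light over untreated wells divided by growth signal over untreated wells; some hits fall short of that in this replicate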
Of the large screens only hits and unclear results are named; the others gave an inactive call; ! = a repeat was not active.

COc1ccc(S(=O)(=O)N(C)C[C@@H]2OCCCC[C@@H](C)Oc3ccc(NS(=O)(=O)c4ccc(F)cc4)cc3C(=O)N([C@H](C)CO)C[C@@H]2C)cc1	none
C[C@@H]1CN([C@H](C)CO)C(=O)c2cc(NS(=O)(=O)c3ccc(F)cc3)ccc2O[C@@H](C)CCCCO[C@@H]1CN(C)S(C)(=O)=O	E-selectin induc 44
O=C(CCN1CCCCC1)NCC[C@@H]1CC[C@@H](NC(=O)C2CCC2)[C@H](CO)O1	none
O=C(Nc1nnc(Cc2ccccc2F)s1)Nc1ccccc1F	esBAF inh 44 (no result: E-selectin induc)
O=C(Nc1nnc(Cc2ccc(F)cc2)s1)Nc1ccccc1F	none (no result: E-selectin induc)
O=C(c1ccc(F)cc1)N1CC(=O)N2[C@H](CO)[C@H](c3ccc(C#Cc4ccc(F)cc4)cc3)[C@H]2C1	none (no result: esBAF inh, PglD DTNB, Statin myotox sup, UUG fidelity)
CSc1nnc(-c2ccccc2)c(=O)[nH]1	Statin myotox sup 97 (no result: E-selectin induc)
CCCC(=O)Nc1ccccc1-c1nnc(SC)[nH]c1=O	none
C[C@@H]1CN([C@H](C)CO)S(=O)(=O)c2ccc(-c3ccc(F)cc3)cc2O[C@@H]1CN(C)S(C)(=O)=O	none
CN(c1ccc(C(=O)N2CCOCC2)cc1[N+](=O)[O-])C1CCCCC1	esBAF inh 57 (no result: E-selectin induc)
CN(C(=O)c1ccc(N2CCOCC2)c([N+](=O)[O-])c1)C1CCCCC1	none (no result: PGC1a acetyl inh, E-selectin induc)
FC(F)(F)c1nnc2c(Sc3ccccn3)nc3ccccc3n12	esBAF inh 63
C[C@H](CO)N1C[C@H](C)[C@H](CN(C)C(=O)C2CCCCC2)Oc2ncc(C#CC3CCCC3)cc2C1=O	none
C[C@@H]1CN([C@@H](C)CO)C(=O)c2cc(NC(=O)C3CCCCC3)ccc2O[C@@H](C)CCCCO[C@@H]1CN(C)C(=O)c1ccncc1	none
CN(C)CC#Cc1ccc([C@H]2[C@@H](CO)N3CCCCN(C(=O)Nc4cc(F)ccc4F)C[C@H]23)cc1	none (no result: esBAF inh, Statin myotox sup)
O=C(Nc1ccccc1)c1ccccc1O	esBAF inh 51 (no result: E-selectin induc)
COc1ccc(C(=O)Nc2ccc3[nH]ccc3c2)cc1OC	esBAF inh inconclusive (no result: E-selectin induc)
COC(=O)c1ccc(NC(=O)c2cccc(OC)c2)cc1	esBAF inh 47 (no result: E-selectin induc)
COc1cccc(C(=O)Nc2ccc(C(=O)O)cc2)c1	none (no result: E-selectin induc)
O=C(Nc1ccc2ccccc2c1)c1cccc(F)c1	esBAF inh 50
COc1ccc(C(=O)Nc2ccc3[nH]ccc3c2)cc1	E-selectin induc 34 (no result: esBAF inh, PglD DTNB, Statin myotox sup, UUG fidelity)
C[C@@H]1CN([C@H](C)CO)C(=O)CCCn2cc(nn2)CO[C@H]1CN(C)Cc1ccc(C(F)(F)F)cc1	none
C[C@@H]1CN([C@H](C)CO)C(=O)Cc2cc(NC(=O)CCCN(C)C)ccc2O[C@@H]1CN(C)S(=O)(=O)c1ccccc1	E-selectin induc inconclusive
COc1ccc(NC(=O)N(C)C[C@@H]2Oc3cc(-c4ccc(C)cc4)ccc3S(=O)(=O)N([C@@H](C)CO)C[C@@H]2C)cc1	none
COc1ccc(NC(=O)N(C)C[C@H]2OCc3cn(nn3)CCCC(=O)N([C@H](C)CO)C[C@H]2C)c(OC)c1	none (no result: PglD DTNB, UUG fidelity)
COc1ccc(NC(=O)Nc2ccc3c(c2)CC(=O)N([C@H](C)CO)C[C@@H](C)[C@@H](CN(C)S(=O)(=O)c2ccccc2)O3)cc1	none (no result: PglD DTNB, UUG fidelity)
COc1cccc(C(=O)Nc2cccc(OC(C)=O)c2)c1	none (no result: E-selectin induc)
COc1cccc(C(=O)NC(=S)Nc2ccc(N(C)C)cc2)c1	esBAF inh 61
COc1cccc(NC(=O)c2ccncc2)c1	none (no result: E-selectin induc)
O=C(N/N=C/c1ccc2cccc(OCc3ccccc3)c2n1)c1ccc(Br)cc1	none (no result: esBAF inh, Statin myotox sup)
COc1ccc(C(=O)N/N=C/c2ccc3cccc(OCc4ccccc4)c3n2)cc1	esBAF inh 64 (no result: E-selectin induc)
COc1cccc(NC(=O)c2cccc(Cl)c2)c1	esBAF inh 71
COC(=O)c1cccc(NC(=O)c2cccc(OC)c2)c1	esBAF inh 61 (no result: E-selectin induc)
C[C@@H]1CN([C@@H](C)CO)C(=O)CCCn2cc(nn2)CO[C@@H]1CN(C)Cc1ccncc1	none (no result: PglD DTNB, UUG fidelity)
CCC(=O)Nc1ccc2c(c1)C(=O)N(C)C[C@@H](OC)[C@H](C)CN(C(=O)CC1CC1)[C@@H](C)CO2	none
CN1C(=O)c2cc(NC(=O)c3cccc(C(F)(F)F)c3)ccc2OC[C@H]2O[C@H](CC(=O)NCCN3CCCC3)CC[C@H]21	none
CO[C@@H]1CN(C)C(=O)c2cc(NC(=O)NC(C)C)ccc2OC[C@H](C)N(Cc2cncnc2)C[C@H]1C	none (no result: UUG fidelity)
COc1ccc(C(=O)N/N=C/C(=O)c2ccccc2)cc1	esBAF inh 62
COc1cccc(C(=O)Nc2ccc(C(=O)c3ccccc3)cc2)c1	esBAF inh 42
CCOc1cccc(C(=O)Nc2ccc(N(CC)CC)cc2)c1	esBAF inh 44 (no result: E-selectin induc)
COc1cccc(C(=O)Nc2cccc(C(C)=O)c2)c1	esBAF inh 52 (no result: PGC1a acetyl inh, E-selectin induc)
CCCNC(=O)Nc1ccc2c(c1)C(=O)N(C)[C@H]1CC[C@H](CC(=O)NCc3ccccc3)O[C@H]1CO2	none
CNC[C@@H]1OCCCC[C@@H](C)Oc2ccc(NC(=O)Nc3ccccc3)cc2C(=O)N([C@H](C)CO)C[C@H]1C	none
CCC(=O)Nc1cccc(NC(=S)NC(=O)c2ccc(Cl)cc2Cl)c1	none (no result: PGC1a acetyl inh, esBAF inh, PglD DTNB, Statin myotox sup, UUG fidelity)
CCC(=O)Nc1cccc(NC(=S)NC(=O)c2ccc(Cl)cc2)c1	esBAF inh 61 (no result: E-selectin induc)
CCn1cc(C(=O)Nc2ccccc2C(=O)OC)cn1	none
COc1cccc(C(=O)NCCn2ccc3ccccc32)c1	esBAF inh 71 (no result: E-selectin induc)
COc1cccc(C(=O)NCC(=O)N2CCC(C)CC2)c1	Statin myotox sup 99 (no result: E-selectin induc)
CC1CCN(C(=O)CNC(=O)c2cccc(OC(F)F)c2)CC1	none (no result: E-selectin induc)
CCN(CC)c1ccc(NC(=O)c2cnn(CC)c2)cc1	esBAF inh 54 (no result: PglD DTNB, E-selectin induc, UUG fidelity)
O=C(C[C@@H]1C=C[C@H](NC(=O)c2cccnc2)[C@H](CO)O1)NCc1ccc(Cl)c(Cl)c1	none
CO[C@@H]1CN(C)C(=O)c2ccc(NC(=O)c3cc(C)on3)cc2OC[C@H](C)N(C(C)=O)C[C@@H]1C	none
Cc1noc(C)c1NC(=O)N(C)C[C@@H]1Oc2ccc(NC(=O)Nc3ccccc3)cc2C(=O)N([C@H](C)CO)C[C@H]1C	none (no result: E-selectin induc)
CO[C@@H]1CN(C)C(=O)c2cc(C#N)ccc2OC[C@H]2O[C@@H](CC[C@H]2OC)CCN(C)C(=O)[C@H]1C	none (no result: UUG fidelity)
Cc1ccc(C(=O)Nc2ccccc2C(=O)NC(C(=O)O)C(C)C)cc1 (stereo not drawn)	esBAF inh 31! (no result: E-selectin induc)
CCOc1cccc(C(=O)NC(=S)Nc2cccc(C)c2)c1	esBAF inh 42 (no result: PGC1a acetyl inh, PglD DTNB, E-selectin induc, UUG fidelity)
COc1ccc(C(=O)Nc2ccccc2C(=O)NC(Cc2ccc(O)cc2)C(=O)NNC(=O)c2ccccc2Cl)cc1 (stereo not drawn)	Statin myotox sup 112 (no result: E-selectin induc)
COc1ccc(C(=O)Nc2ccccc2C(=O)Nc2ccccc2)cc1	esBAF inh 46
O=C(C[C@H]1C[C@H]2c3cc(NC(=O)c4cccnc4)ccc3O[C@H]2[C@@H](CO)O1)NC1CCCCC1	none (no result: UUG fidelity)
